Experimental data published in US8455433B2, “Process for solubilizing glucagon-like peptide 1 compounds” (Eli Lilly and Company, priority 2000, dated 2013).
Like-named read-outs stand apart in the source and are kept apart here.

Format: physicochemical
Method: Val^8-GLP-1(7-37)OH (1 gram) lyophilized powder was dissolved in 25 mM ammonium bicarbonate, pH 8.0 (100 ml). The solution was stirred with a TEFLON stir bar at about 200 rpm at 21° C. (ambient temperature) for 16 hours. At varying times, usually within 30 minutes, the solution became hazy. On continued stirring, the haze became visibly more dense. The kinetics of the turbidity were measured by rate of formation of turbidity, i.e. absorbance at 340 nm. The precipitated protein was harvested either by filtration, e.g. Whatman 1 filter disc, or centrifugation. The supernatant was assayed for protein content either by Biuret Colorimetric Assay obtained from Pierce (Rockford, Ill.) or UV absorbance at 280 nm. By either method, the protein precipitate constituted in excess of 90% of the starting material, i.e. there was less than 10% of the protein remaining in the supernatant fraction. The collected precipitate was dried in vacuo, i.e. in a lyophilizer. The resultant precipitated (0.96 grams) material was soluble in 20 mM phosphate at pH 7.2 at less than 0.01 mg/ml. Solubility was tested by suspension of the solid in the buffer, adjustment of pH, if necessary, and filtration through a 0.2 micron filter. The protein content of the filtrate was tested by either Biuret Colorimetric Assay, UV absorbance at 280 nm, or by high pressure liquid chromatography analysis (HPLC) analysis. […]

- solubility (solubility): < 100 µg/mL
- solubility (solubility (usually)): < 50 µg/mL
SMILES: CC[C@H](C)[C@H](NC(=O)[C@H](Cc1ccccc1)NC(=O)[C@H](CCC(=O)O)NC(=O)[C@H](CCCNC(=N)N)NC(=O)[C@H](C)NC(=O)[C@H](C)NC(=O)[C@H](CCC(N)=O)NC(=O)CNC(=O)[C@H](CCC(=O)O)NC(=O)[C@H](CC(C)C)NC(=O)[C@H](Cc1ccc(O)cc1)NC(=O)[C@H](CO)NC(=O)[C@H](CO)NC(=O)[C@@H](NC(=O)[C@H](CC(=O)O)NC(=O)[C@H](CO)NC(=O)[C@@H](NC(=O)[C@H](Cc1ccccc1)NC(=O)[C@@H](NC(=O)CNC(=O)[C@H](CCC(=O)O)NC(=O)[C@H](C)NC(=O)CCc1c[nH]cn1)[C@@H](C)O)[C@@H](C)O)C(C)C)C(=O)N[C@@H](C)C(=O)N[C@@H](Cc1c[nH]c2ccccc12)C(=O)N[C@@H](CC(C)C)C(=O)N[C@H](C(=O)N[C@@H](CCCCN)C(=O)NCC(=O)N[C@@H](CCCNC(=N)N)C(=O)NCC(=O)O)C(C)C [isopropylimidazole^7-arginine^26-GLP-1(8-37)OH]
